# Results as given in patent publication US20260384438A1, “PYRROLOPYRIMIDINE CARBOXAMIDES” (published 2026).
# Protein sequences, listed by entry. Tags and fused reporters are not part of them. Residues count along the entry.
# UniProt Q9Y2U5, whole entry: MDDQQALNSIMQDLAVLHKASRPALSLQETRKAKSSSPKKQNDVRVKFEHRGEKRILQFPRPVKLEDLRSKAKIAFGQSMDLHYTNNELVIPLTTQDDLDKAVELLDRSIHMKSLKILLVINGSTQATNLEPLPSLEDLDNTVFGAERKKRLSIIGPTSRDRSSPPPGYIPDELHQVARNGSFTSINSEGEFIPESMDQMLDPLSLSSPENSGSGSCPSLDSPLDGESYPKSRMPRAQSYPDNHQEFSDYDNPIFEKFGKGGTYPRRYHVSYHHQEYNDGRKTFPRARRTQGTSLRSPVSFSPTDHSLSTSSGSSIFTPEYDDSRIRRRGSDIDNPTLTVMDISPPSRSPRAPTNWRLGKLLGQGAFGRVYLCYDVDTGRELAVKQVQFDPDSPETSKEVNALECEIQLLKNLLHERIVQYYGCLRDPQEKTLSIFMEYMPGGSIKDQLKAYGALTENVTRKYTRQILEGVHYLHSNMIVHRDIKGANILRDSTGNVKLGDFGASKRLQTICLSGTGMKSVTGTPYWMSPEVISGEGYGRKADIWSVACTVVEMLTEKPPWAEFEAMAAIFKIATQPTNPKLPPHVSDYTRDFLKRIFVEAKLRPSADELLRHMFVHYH
# UniProt P54756, 25-1037 limits assumed: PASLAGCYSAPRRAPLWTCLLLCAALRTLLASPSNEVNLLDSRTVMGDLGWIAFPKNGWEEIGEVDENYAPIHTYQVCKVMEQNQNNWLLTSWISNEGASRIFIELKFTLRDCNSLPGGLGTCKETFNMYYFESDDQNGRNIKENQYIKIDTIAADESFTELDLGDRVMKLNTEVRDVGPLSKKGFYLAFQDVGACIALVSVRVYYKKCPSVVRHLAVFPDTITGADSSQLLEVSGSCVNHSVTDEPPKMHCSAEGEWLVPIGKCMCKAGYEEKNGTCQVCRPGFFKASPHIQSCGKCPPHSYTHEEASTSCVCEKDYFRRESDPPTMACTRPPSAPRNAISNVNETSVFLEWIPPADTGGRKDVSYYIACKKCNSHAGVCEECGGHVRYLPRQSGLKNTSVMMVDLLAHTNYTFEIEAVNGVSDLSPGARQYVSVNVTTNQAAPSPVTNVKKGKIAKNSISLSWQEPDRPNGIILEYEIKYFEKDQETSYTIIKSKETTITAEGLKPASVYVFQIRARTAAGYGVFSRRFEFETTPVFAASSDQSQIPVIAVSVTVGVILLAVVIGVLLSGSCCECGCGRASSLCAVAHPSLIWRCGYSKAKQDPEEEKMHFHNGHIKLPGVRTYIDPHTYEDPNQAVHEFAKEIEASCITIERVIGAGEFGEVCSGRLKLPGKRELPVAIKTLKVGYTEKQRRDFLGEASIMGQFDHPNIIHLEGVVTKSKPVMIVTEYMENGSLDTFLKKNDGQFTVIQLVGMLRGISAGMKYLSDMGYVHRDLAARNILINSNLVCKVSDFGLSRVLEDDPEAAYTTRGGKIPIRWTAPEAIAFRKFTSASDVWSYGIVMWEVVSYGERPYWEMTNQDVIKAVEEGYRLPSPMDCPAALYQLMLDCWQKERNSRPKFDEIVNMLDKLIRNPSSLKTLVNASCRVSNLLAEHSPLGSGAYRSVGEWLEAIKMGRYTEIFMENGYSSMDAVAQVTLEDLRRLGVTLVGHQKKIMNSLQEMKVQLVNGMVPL
# UniProt Q00534, whole entry: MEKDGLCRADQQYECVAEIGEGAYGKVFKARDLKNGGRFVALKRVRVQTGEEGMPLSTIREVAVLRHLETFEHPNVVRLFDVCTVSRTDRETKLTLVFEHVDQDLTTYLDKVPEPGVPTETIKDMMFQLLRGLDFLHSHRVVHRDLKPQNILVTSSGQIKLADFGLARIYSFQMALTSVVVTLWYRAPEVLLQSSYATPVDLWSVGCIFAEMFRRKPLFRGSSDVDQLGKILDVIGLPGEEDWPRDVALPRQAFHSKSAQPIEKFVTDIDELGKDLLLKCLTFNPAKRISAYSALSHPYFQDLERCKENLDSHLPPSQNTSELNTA
# UniProt Q9NYV4, whole entry: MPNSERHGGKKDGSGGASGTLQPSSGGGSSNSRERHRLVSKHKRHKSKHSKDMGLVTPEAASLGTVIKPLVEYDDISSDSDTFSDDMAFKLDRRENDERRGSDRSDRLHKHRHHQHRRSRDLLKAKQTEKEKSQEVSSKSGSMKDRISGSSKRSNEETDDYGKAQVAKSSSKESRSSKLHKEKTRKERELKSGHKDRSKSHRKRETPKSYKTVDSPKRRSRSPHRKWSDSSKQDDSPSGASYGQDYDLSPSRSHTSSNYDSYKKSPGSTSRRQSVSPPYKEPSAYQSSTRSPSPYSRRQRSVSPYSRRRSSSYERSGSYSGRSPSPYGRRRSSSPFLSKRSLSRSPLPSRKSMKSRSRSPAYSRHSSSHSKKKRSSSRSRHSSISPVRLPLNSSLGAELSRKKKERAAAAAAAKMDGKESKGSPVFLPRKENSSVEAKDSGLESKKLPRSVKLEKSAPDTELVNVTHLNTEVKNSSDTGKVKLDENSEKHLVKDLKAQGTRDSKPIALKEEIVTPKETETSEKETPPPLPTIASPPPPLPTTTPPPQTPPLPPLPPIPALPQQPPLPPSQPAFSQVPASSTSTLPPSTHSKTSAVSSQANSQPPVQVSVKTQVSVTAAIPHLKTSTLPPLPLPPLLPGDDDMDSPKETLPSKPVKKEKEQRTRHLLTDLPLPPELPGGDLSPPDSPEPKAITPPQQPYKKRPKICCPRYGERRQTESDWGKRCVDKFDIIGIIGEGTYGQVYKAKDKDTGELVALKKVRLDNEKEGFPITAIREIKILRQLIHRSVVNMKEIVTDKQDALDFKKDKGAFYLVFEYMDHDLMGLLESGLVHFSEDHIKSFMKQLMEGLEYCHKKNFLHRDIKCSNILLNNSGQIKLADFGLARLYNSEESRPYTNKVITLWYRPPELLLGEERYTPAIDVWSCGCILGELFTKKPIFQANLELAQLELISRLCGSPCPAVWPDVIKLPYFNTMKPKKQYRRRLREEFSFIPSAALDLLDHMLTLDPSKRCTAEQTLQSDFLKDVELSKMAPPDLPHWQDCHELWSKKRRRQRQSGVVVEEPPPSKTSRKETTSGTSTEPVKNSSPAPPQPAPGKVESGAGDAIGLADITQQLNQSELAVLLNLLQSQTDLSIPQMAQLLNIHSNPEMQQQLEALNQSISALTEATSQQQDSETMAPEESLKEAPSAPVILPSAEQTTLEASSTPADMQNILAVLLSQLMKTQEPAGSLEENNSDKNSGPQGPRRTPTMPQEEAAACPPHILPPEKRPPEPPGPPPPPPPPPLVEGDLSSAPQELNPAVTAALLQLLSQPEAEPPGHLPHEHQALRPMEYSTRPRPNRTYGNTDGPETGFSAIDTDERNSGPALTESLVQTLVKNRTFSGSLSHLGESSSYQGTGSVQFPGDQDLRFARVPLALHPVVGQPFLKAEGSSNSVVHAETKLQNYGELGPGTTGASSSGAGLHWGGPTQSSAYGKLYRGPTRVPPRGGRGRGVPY
# UniProt Q9NWZ3, whole entry: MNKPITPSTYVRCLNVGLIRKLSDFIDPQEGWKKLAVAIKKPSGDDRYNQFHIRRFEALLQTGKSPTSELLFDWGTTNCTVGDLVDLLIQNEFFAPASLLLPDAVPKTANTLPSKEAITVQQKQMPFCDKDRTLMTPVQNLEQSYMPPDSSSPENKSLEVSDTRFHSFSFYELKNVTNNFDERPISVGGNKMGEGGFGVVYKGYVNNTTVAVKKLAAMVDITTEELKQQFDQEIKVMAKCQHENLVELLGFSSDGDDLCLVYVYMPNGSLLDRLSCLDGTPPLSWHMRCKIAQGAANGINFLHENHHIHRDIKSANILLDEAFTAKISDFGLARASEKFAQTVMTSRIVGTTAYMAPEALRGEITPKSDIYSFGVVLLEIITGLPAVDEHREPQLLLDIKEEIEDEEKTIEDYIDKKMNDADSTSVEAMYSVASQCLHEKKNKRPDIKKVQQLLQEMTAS
# UniProt Q9C0K7, whole entry: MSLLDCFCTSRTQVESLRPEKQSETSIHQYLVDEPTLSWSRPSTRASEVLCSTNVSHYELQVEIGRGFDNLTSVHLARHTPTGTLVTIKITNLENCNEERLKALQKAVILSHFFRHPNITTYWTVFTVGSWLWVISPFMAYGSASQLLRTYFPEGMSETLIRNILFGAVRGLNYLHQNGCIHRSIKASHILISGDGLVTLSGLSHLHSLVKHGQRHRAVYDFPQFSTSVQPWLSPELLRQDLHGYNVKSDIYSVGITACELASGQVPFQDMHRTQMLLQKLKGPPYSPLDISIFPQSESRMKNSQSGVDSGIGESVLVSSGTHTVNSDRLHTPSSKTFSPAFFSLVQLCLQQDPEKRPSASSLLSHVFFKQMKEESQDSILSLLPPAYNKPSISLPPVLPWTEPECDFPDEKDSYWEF
# UniProt Q99759, whole entry: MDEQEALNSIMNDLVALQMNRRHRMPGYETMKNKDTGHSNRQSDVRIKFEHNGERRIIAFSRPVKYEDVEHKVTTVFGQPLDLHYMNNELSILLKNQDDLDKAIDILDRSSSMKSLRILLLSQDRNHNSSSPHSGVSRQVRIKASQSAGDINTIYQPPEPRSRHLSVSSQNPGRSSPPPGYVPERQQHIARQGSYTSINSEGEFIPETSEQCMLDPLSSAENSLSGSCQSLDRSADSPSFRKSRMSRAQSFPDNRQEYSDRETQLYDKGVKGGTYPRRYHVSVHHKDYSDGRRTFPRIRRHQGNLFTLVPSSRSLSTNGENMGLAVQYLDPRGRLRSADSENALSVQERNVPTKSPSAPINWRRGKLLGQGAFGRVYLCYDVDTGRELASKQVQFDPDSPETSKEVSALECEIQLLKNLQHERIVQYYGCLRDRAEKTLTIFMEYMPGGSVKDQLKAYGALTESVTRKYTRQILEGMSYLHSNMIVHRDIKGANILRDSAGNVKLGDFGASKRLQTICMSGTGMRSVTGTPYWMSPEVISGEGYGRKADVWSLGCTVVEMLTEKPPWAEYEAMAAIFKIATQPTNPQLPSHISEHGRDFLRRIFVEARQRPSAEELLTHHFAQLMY
# UniProt Q07912, whole entry: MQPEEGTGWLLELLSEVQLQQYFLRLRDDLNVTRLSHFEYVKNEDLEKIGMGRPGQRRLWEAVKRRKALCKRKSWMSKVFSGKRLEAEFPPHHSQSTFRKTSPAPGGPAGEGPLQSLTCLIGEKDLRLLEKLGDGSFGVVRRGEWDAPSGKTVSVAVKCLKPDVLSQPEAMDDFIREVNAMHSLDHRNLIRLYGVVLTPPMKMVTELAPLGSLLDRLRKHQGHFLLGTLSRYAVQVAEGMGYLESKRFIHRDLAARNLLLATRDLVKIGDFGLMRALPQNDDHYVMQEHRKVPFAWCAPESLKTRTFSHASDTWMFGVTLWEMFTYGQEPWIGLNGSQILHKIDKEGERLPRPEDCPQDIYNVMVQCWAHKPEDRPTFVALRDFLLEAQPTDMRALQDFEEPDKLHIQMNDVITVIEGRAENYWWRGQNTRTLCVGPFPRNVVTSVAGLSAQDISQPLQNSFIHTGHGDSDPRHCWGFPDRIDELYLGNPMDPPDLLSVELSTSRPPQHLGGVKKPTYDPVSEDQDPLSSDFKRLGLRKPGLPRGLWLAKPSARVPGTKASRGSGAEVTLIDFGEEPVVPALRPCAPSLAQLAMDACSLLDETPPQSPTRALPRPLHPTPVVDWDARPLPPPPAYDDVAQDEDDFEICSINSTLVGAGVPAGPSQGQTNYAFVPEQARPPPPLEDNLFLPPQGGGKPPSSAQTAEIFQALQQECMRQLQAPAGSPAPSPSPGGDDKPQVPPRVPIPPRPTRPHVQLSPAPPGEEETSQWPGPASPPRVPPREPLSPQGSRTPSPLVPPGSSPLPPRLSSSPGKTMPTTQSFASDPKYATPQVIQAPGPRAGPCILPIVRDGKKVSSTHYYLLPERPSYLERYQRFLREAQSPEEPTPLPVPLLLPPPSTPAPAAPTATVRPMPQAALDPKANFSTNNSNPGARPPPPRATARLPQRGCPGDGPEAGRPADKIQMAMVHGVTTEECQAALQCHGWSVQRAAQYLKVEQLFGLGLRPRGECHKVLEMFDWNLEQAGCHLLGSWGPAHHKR
# UniProt Q00536, whole entry: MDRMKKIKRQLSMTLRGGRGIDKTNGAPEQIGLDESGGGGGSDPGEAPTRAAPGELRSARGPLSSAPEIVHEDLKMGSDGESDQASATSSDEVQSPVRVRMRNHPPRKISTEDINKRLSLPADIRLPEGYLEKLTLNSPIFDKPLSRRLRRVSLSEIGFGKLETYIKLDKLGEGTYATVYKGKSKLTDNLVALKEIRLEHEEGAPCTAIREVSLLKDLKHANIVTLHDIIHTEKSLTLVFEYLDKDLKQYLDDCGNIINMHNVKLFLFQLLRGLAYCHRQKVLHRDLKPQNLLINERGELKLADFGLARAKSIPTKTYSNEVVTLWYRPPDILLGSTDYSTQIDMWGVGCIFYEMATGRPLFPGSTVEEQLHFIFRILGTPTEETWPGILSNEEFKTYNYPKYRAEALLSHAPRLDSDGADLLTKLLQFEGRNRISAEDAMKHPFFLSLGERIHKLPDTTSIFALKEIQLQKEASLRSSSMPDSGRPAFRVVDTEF
# Tests used:
# Assay in all cases: KAT chemical proteomics
# MAP3K2 = MAP3K2 (Homo sapiens, UniProt Q9Y2U5)
# PIP4K2C = PIP4K2C (Homo sapiens, UniProt Q8TBX8)
# CDK1 = CDK1 (Homo sapiens, UniProt P06493)
# CDC42BPA = CDC42BPA (Homo sapiens, UniProt Q5VT25)
# EPHA5 = EPHA5 (Homo sapiens, UniProt P54756)
# CSNK1E = CSNK1E (Homo sapiens, UniProt P49674)
# PTK2 = PTK2 (Homo sapiens, UniProt Q05397)
# DYRK1A = DYRK1A (Homo sapiens, UniProt Q13627)
# PTK2B = PTK2B (Homo sapiens, UniProt Q14289)
# RIPK3 = RIPK3 (Homo sapiens, UniProt Q9Y572)
# CDK6 = CDK6 (Homo sapiens, UniProt Q00534)
# MAP3K5 = MAP3K5 (Homo sapiens, UniProt Q99683)
# PDGFRB = PDGFRB (Homo sapiens, UniProt P09619)
# DTYMK = DTYMK (Homo sapiens, UniProt P23919)
# ERN1 = ERN1 (Homo sapiens, UniProt O75460)
# CCNE1 = tested on: CCNE1
# CDK12 = CDK12 (Homo sapiens, UniProt Q9NYV4)
# TGFBR1 = TGFBR1 (Homo sapiens, UniProt P36897)
# IRAK4 = IRAK4 (Homo sapiens, UniProt Q9NWZ3)
# MAPK3 = MAPK3 (Homo sapiens, UniProt P27361)
# STRADB = STRADB (Homo sapiens, UniProt Q9C0K7)
# RPS6KA4 = RPS6KA4 (Homo sapiens, UniProt O75676)
# FASTKD3 = FASTKD3 (Homo sapiens, UniProt Q14CZ7)
# NME1 = NME1 (Homo sapiens, UniProt P15531)
# CLK1 = CLK1 (Homo sapiens, UniProt P49759)
# KHK = KHK (Homo sapiens, UniProt P50053)
# CDKL5 = CDKL5 (Homo sapiens, UniProt O76039)
# MAP3K3 = MAP3K3 (Homo sapiens, UniProt Q99759)
# DOLK = DOLK (Homo sapiens, UniProt Q9UPQ8)
# EPHB2 = EPHB2 (Homo sapiens, UniProt P29323)
# PRKD2 = PRKD2 (Homo sapiens, UniProt Q9BZL6)
# PRKAG1 = tested on: PRKAG1
# CCNH = tested on: CCNH
# TNK2 = TNK2 (Homo sapiens, UniProt Q07912)
# CDK16 = CDK16 (Homo sapiens, UniProt Q00536)
# ERCC2 = tested on: ERCC2
# ERN2 = ERN2 (Homo sapiens, UniProt Q76MJ5)
# EPHB6 = EPHB6 (Homo sapiens, UniProt O15197)
# DMPK = DMPK (Homo sapiens, UniProt Q09013)
# NME2 = NME2 (Homo sapiens, UniProt P22392)
# AK2 = AK2 (Homo sapiens, UniProt P54819)
smiles,measurement,setting,value
"Cc1nc(C(F)(F)F)c2c(C(N)=O)c(N)n(-c3c(C)ccc(O)c3C)c2n1 (single isomer, unassigned)",RB50,MAP3K2,>50 µM
same,RB50,PIP4K2C,>50 µM
same,RB50,CDK1,>50 µM
same,RB50,CDC42BPA,>50 µM
same,RB50,EPHA5,168 nM
same,RB50,CSNK1E,>50 µM
same,RB50,PTK2,>50 µM
same,RB50,DYRK1A,433 nM
same,RB50,PTK2B,>50 µM
same,RB50,RIPK3,>50 µM
same,RB50,CDK6,>50 µM
same,RB50,MAP3K5,>50 µM
same,RB50,PDGFRB,>50 µM
same,RB50,DTYMK,>50 µM
same,RB50,ERN1,>50 µM
same,RB50,CCNE1,>50 µM
same,RB50,CDK12,>50 µM
same,RB50,TGFBR1,87.9 nM
same,RB50,IRAK4,>50 µM
same,RB50,MAPK3,>50 µM
same,RB50,STRADB,>50 µM
same,RB50,RPS6KA4,>50 µM
same,RB50,FASTKD3,>50 µM
same,RB50,NME1,>50 µM
same,RB50,CLK1,291 nM
same,RB50,KHK,>50 µM
same,RB50,CDKL5,250 nM
same,RB50,MAP3K3,>50 µM
same,RB50,DOLK,>50 µM
same,RB50,EPHB2,176 nM
same,RB50,PRKD2,>50 µM
same,RB50,PRKAG1,>50 µM
same,RB50,CCNH,1.1 µM
same,RB50,TNK2,241 nM
same,RB50,CDK16,>50 µM
same,RB50,ERCC2,>50 µM
same,RB50,ERN2,>50 µM
same,RB50,EPHB6,>50 µM
same,RB50,DMPK,>50 µM
same,RB50,NME2,>50 µM
same,RB50,AK2,>50 µM
